Assay results published in US20040097421A1 (priority 2000, published 2004).

Key:
[1] = tested on: CEM/S (leukemia CCRF-CEM); experiment: FMCA cell line panel, CEM/S; format: cell-based, human; conditions: read-out: IC50 (μM), CEM/S, 72 hours
[2] = tested on: CEM/R; experiment: FMCA cell line panel, CEM/R; format: cell-based, human; conditions: read-out: IC50 (μM), CEM/R, 72 hours
[3] = tested on: ACHN (renal carcinoma, primary resistant); experiment: FMCA cell line panel, ACHN; format: cell-based, human; conditions: read-out: IC50 (μM), ACHN, 72 hours
[4] = tested on: H69 (small cell lung cancer NCI-H69); experiment: FMCA cell line panel, H69; format: cell-based, human; conditions: read-out: IC50 (μM), H69, 72 hours
[5] = tested on: H69AR (doxorubicin resistance subline); experiment: FMCA cell line panel, H69AR; format: cell-based, human; conditions: read-out: IC50 (μM), H69AR, 72 hours
[6] = tested on: 8226S (myeloma RPMI 8226); experiment: FMCA cell line panel, 8226S; format: cell-based, human; conditions: read-out: IC50 (μM), 8226S, 72 hours
[7] = tested on: 8226Dox40 (doxorubicin resistance subline); experiment: FMCA cell line panel, 8226Dox40; format: cell-based, human; conditions: read-out: IC50 (μM), 8226Dox40, 72 hours
[8] = tested on: 8226LR5 (melphalan resistance subline); experiment: FMCA cell line panel, 8226LR5; format: cell-based, human; conditions: read-out: IC50 (μM), 8226LR5, 72 hours
[9] = tested on: U937gtb (lymphoma U-937 GBT); experiment: FMCA cell line panel, U937gtb; format: cell-based, human; conditions: read-out: IC50 (μM), U937gtb, 72 hours
[10] = tested on: U937vcr (vincristine resistance subline); experiment: FMCA cell line panel, U937vcr; format: cell-based, human; conditions: read-out: IC50 (μM), U937vcr, 72 hours
[11] = tested on: panel of ten human tumour cell lines; experiment: FMCA cell line panel, mean of ten lines; format: cell-based; conditions: mean over the ten cell lines
[12] = tested on: hematological tumors, primary cultures of human tumor cells from patients (PHTC); experiment: FMCA, 31 PHTC cultures, Test 4, hematological tumors; format: cell-based; conditions: 10 μM
[13] = tested on: solid tumors, primary cultures of human tumor cells from patients (PHTC); experiment: FMCA, 31 PHTC cultures, Test 4, solid tumors; format: cell-based; conditions: 10 μM
[14] = tested on: primary cultures of human tumor cells from patients (PHTC), total; experiment: FMCA, 31 PHTC cultures, Test 4, total; format: cell-based; conditions: 10 μM

Structure (SMILES): N[C@@H](Cc1cccc(N(CCCl)CCCl)c1)C(=O)O
- IC50 [1]: 2.54 µM
- IC50 [2]: 1.7 µM
- IC50 [3]: 390 µM
- IC50 [4]: 41.1 µM
- IC50 [5]: 61.4 µM
- IC50 [6]: 30.4 µM
- IC50 [7]: 41.4 µM
- IC50 [8]: 31.9 µM
- IC50 [9]: 3.78 µM
- IC50 [10]: 6.64 µM
- IC50 (μM), MEAN [11]: 61.09 µM
- Tumor cell survival index (%), Hematological tumors n = 7-11 [12]: 47.1%
- Tumor cell survival index (%), Solid tumors n = 12-20 [13]: 93.2%
- Tumor cell survival index (%), Total n = 19-31 [14]: 76.2%
